# Results reported in ChEMBL document CHEMBL1201862, “PubChem BioAssay data set” (2004).
# The list shows a part of the results. Cut-off read from the data, not from the text of the source: active = GI50 up to about 1.1 µM and inactive = higher. Only a part of the results of these assays is listed, not drawn at random.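 In this assay, cells in 96-well plates receive the compound at five concentrations for 48 hours. Endpoints are linearly interpolated between the surrounding concentrations. GI50 = concentration required for 50% inhibition of growth.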 For part of these data: Results with a measured potency or affinity are listed apart.
# Key:
# Assay in all cases: NCI tumour cell line growth inhibition, 48 h
# MCF7 = tested on: MCF7
# MDA-MB-231 = tested on: MDA-MB-231
# MDA-MB-435 = tested on: MDA-MB-435
# MDA-N = tested on: MDA-N
# MOLT-4 = tested on: MOLT-4
# Malme-3M = tested on: Malme-3M
# NCI-H226 = tested on: NCI-H226
# NCI-H322M = tested on: NCI-H322M
# NCI-H460 = tested on: NCI-H460
# NCI-H522 = tested on: NCI-H522
# NCI/ADR-RES = tested on: NCI/ADR-RES
# OVCAR-3 = tested on: OVCAR-3
# OVCAR-4 = tested on: OVCAR-4
# OVCAR-5 = tested on: OVCAR-5
# OVCAR-8 = tested on: OVCAR-8
# PC-3 = tested on: PC-3
# RPMI-8226 = tested on: RPMI-8226
# SF-268 = tested on: SF-268
# SF-295 = tested on: SF-295
# RXF 631 = tested on: RXF 631
SMILES,GI50 (MCF7),GI50 (MDA-MB-231),GI50 (MDA-MB-435),GI50 (MDA-N),GI50 (MOLT-4),GI50 (Malme-3M),GI50 (NCI-H226),GI50 (NCI-H322M),GI50 (NCI-H460),GI50 (NCI-H522),GI50 (NCI/ADR-RES),GI50 (OVCAR-3),GI50 (OVCAR-4),GI50 (OVCAR-5),GI50 (OVCAR-8),GI50 (PC-3),GI50 (RPMI-8226),GI50 (SF-268),GI50 (SF-295),GI50 (RXF 631)
Cc1ccc2ccc3ccc4ccccc4c3c2c1.O=C1c2cc([N+](=O)[O-])ccc2-c2c1cc([N+](=O)[O-])cc2[N+](=O)[O-],inactive: 1.15 µM,inactive: 4.55 µM,inactive: 2.72 µM,inactive: 2.57 µM,active: 0.977 µM,inactive: 8.38 µM,inactive: 7.48 µM,inactive: 4.28 µM,inactive: 9.18 µM,active: 0.238 µM,inactive: 3.91 µM,inactive: 1.14 µM,active: 0.773 µM,inactive: 7.45 µM,active: 1.03 µM,inactive: 2.34 µM,active: 1.02 µM,inactive: 1.7 µM,inactive: 3.91 µM,
CCCC[S+](N)(=O)CCC(N)P(=O)(O)O (centres undefined),inactive: > 100 µM,inactive: > 100 µM,inactive: 6.38 µM,inactive: 24.4 µM,inactive: 10 µM,,inactive: > 100 µM,,inactive: > 100 µM,inactive: > 100 µM,inactive: > 100 µM,inactive: > 100 µM,inactive: 64.1 µM,inactive: > 100 µM,inactive: > 100 µM,inactive: > 100 µM,inactive: > 100 µM,,inactive: > 100 µM,
O=[N+]([O-])C1([N+](=O)[O-])COCOC1,inactive: 78.2 µM,inactive: > 100 µM,inactive: 17.9 µM,inactive: 17.7 µM,inactive: > 100 µM,inactive: 33.4 µM,inactive: > 100 µM,inactive: > 100 µM,inactive: > 100 µM,inactive: 12.3 µM,inactive: 56.5 µM,inactive: > 100 µM,inactive: > 100 µM,inactive: > 100 µM,inactive: > 100 µM,inactive: > 100 µM,inactive: 63.5 µM,inactive: > 100 µM,inactive: > 100 µM,
COP(C)(=O)C(N)Cc1ccccc1 (centres undefined),inactive: > 100 µM,,inactive: 43.3 µM,inactive: 42 µM,inactive: > 100 µM,inactive: 70.1 µM,inactive: > 100 µM,inactive: > 100 µM,inactive: > 100 µM,inactive: 80.4 µM,inactive: > 100 µM,inactive: > 100 µM,inactive: > 100 µM,inactive: > 100 µM,inactive: > 100 µM,inactive: > 100 µM,inactive: > 100 µM,inactive: > 100 µM,inactive: > 100 µM,
O=C1CCN2CCCC12 (centres undefined),inactive: > 100 µM,inactive: > 100 µM,inactive: 40.6 µM,inactive: 62.2 µM,inactive: > 100 µM,inactive: 85.5 µM,inactive: > 100 µM,inactive: > 100 µM,inactive: > 100 µM,inactive: 64.3 µM,inactive: > 100 µM,,inactive: > 100 µM,inactive: > 100 µM,inactive: > 100 µM,inactive: > 100 µM,inactive: > 100 µM,inactive: > 100 µM,,
COc1ccc(C[N+](C)(CCCl)CCCl)c([N+](=O)[O-])c1,inactive: > 100 µM,inactive: > 100 µM,inactive: > 100 µM,inactive: > 100 µM,inactive: 40.5 µM,inactive: 42.6 µM,inactive: > 100 µM,inactive: > 100 µM,inactive: > 100 µM,inactive: > 100 µM,inactive: > 100 µM,inactive: > 100 µM,inactive: > 100 µM,inactive: > 100 µM,inactive: > 100 µM,inactive: > 100 µM,inactive: > 100 µM,inactive: 82.6 µM,inactive: > 100 µM,
O=[As](O)(O)O,inactive: > 100 µM,inactive: > 100 µM,inactive: > 100 µM,inactive: > 100 µM,inactive: > 100 µM,inactive: > 100 µM,inactive: > 100 µM,inactive: > 100 µM,inactive: > 100 µM,inactive: 20.4 µM,inactive: > 100 µM,inactive: > 100 µM,inactive: > 100 µM,inactive: > 100 µM,inactive: > 100 µM,inactive: > 100 µM,inactive: > 100 µM,inactive: > 100 µM,inactive: > 100 µM,
O[C@H]1[C@@H](O)CC2CCN3Cc4cc5c(cc4[C@H]1C23)OCO5 (some centres undefined),,,,,inactive: > 100 µM,inactive: > 100 µM,inactive: > 100 µM,inactive: > 100 µM,inactive: > 100 µM,inactive: > 100 µM,,inactive: > 100 µM,,,inactive: > 100 µM,,inactive: > 100 µM,inactive: > 100 µM,inactive: > 100 µM,
CC1=C[C@H]2O[C@@H]3C[C@H]4OC(=O)/C=C\C=C/[C@H]([C@@H](C)O)OC[C@H](O)[C@@]5(C)O[C@@H]5C(=O)OC[C@@]2(C[C@H]1O)[C@]4(C)C31CO1 (some centres undefined),,active: 0.233 µM,,,,,,,,,,,,,,,,,,
COc1ccc2nccc(C=O)c2c1,active: 0.258 µM,inactive: 9.23 µM,inactive: 3.9 µM,,,inactive: 2.02 µM,inactive: 23.8 µM,inactive: 53.6 µM,inactive: 37.2 µM,inactive: 29.6 µM,active: 0.71 µM,active: 0.625 µM,inactive: 4.32 µM,inactive: 33.8 µM,active: 0.451 µM,inactive: 3.72 µM,active: 0.358 µM,inactive: 5.41 µM,inactive: 5.69 µM,
Cc1[nH]c2c(C)c([N+](=O)[O-])c(C)c([N+](=O)[O-])c2c1[N+](=O)[O-],,,,,inactive: 4.63 µM,inactive: 5.21 µM,,inactive: 11 µM,inactive: 10.5 µM,,,inactive: 3.27 µM,inactive: 10 µM,,inactive: 6.14 µM,,inactive: 3.66 µM,inactive: 6.17 µM,inactive: 6.21 µM,
O=C1Nc2ccc([N+](=O)[O-])cc2/C1=N/Nc1ccc([N+](=O)[O-])cc1[N+](=O)[O-],,,,,inactive: 31.7 µM,inactive: 17.8 µM,inactive: 23.4 µM,inactive: 20.7 µM,inactive: 20.7 µM,inactive: 20.3 µM,,inactive: 18 µM,inactive: 17.9 µM,,inactive: 19.9 µM,,inactive: 24.6 µM,inactive: 36 µM,inactive: 17.7 µM,inactive: 20.6 µM
Cc1ccc2ccc(C)c(C)c2c1.O=[N+]([O-])c1cc([N+](=O)[O-])c(O)c([N+](=O)[O-])c1O,inactive: > 100 µM,inactive: > 100 µM,inactive: > 100 µM,inactive: > 100 µM,inactive: > 100 µM,inactive: > 100 µM,inactive: > 100 µM,inactive: > 100 µM,active: 0.0375 µM,inactive: 70.1 µM,inactive: > 100 µM,inactive: > 100 µM,inactive: > 100 µM,inactive: > 100 µM,inactive: 89.5 µM,inactive: > 100 µM,inactive: > 100 µM,inactive: > 100 µM,inactive: > 100 µM,
Nc1nc2c(ncn2CCN(CCCl)CCCl)c(=O)[nH]1,,,,,inactive: > 100 µM,inactive: > 100 µM,,inactive: > 100 µM,inactive: > 100 µM,inactive: > 100 µM,,inactive: > 100 µM,inactive: > 100 µM,inactive: > 100 µM,inactive: > 100 µM,,inactive: > 100 µM,inactive: > 100 µM,inactive: > 100 µM,inactive: > 100 µM
O[C@@H]1CCN2CCC[C@H]12,inactive: > 100 µM,inactive: > 100 µM,inactive: 49.9 µM,inactive: 98.4 µM,inactive: > 100 µM,inactive: 71.4 µM,inactive: > 100 µM,inactive: > 100 µM,inactive: 10 µM,inactive: 51.4 µM,inactive: > 100 µM,,inactive: > 100 µM,inactive: > 100 µM,inactive: > 100 µM,inactive: > 100 µM,inactive: > 100 µM,inactive: > 100 µM,,
NNc1nc2nonc2nc1NN,inactive: 14.4 µM,inactive: 40.8 µM,inactive: 43.5 µM,inactive: 39 µM,inactive: 40.1 µM,inactive: 25.8 µM,inactive: 31.8 µM,inactive: 38.3 µM,inactive: 33.6 µM,inactive: 10.5 µM,inactive: 23 µM,inactive: 5.13 µM,inactive: 22.6 µM,inactive: 42.3 µM,inactive: 22.4 µM,inactive: 32.1 µM,inactive: 43.3 µM,inactive: 55.2 µM,inactive: > 100 µM,
O=[N+]([O-])C1([N+](=O)[O-])CCCc2nonc21,inactive: 34 µM,inactive: 37.2 µM,inactive: 42 µM,inactive: 4.73 µM,inactive: 24.5 µM,inactive: 30.5 µM,inactive: > 100 µM,,inactive: 36.1 µM,inactive: 16.5 µM,inactive: 36.6 µM,inactive: 54.6 µM,inactive: 38 µM,inactive: > 100 µM,inactive: 33.3 µM,inactive: 34 µM,inactive: 26.4 µM,inactive: 69.8 µM,inactive: > 100 µM,
CC1=C[C@H]2O[C@@H]3[C@H](O)[C@@H](O)[C@](C)([C@@]2(O)CC1)[C@]31CO1,,,,,,,,,,,inactive: 1.17 µM,,,inactive: 1.56 µM,,,,,,
C[S+](N)(=O)CCC(N)P(=O)(O)O (centres undefined),inactive: > 100 µM,inactive: > 100 µM,inactive: 41.5 µM,inactive: 24 µM,inactive: > 100 µM,,inactive: > 100 µM,,inactive: > 100 µM,inactive: 57.3 µM,inactive: > 100 µM,inactive: > 100 µM,inactive: > 100 µM,inactive: > 100 µM,inactive: > 100 µM,inactive: > 100 µM,inactive: > 100 µM,,inactive: > 100 µM,
Cc1ccc([N+](=O)[O-])c(C[N+](C)(CCCl)CCCl)c1,inactive: 5.16 µM,inactive: 30.3 µM,inactive: 10.4 µM,inactive: 13.5 µM,inactive: 18.1 µM,inactive: 16.4 µM,,inactive: 19.4 µM,inactive: 8.71 µM,inactive: 20.2 µM,inactive: 22.1 µM,inactive: 17.6 µM,inactive: 13.9 µM,inactive: 42.4 µM,inactive: 14.6 µM,inactive: 17.8 µM,inactive: 7.4 µM,inactive: 34.4 µM,inactive: 27.4 µM,
COc1ccc([N+](=O)[O-])c(C[N+](C)(CCCl)CCCl)c1,inactive: > 100 µM,inactive: > 100 µM,inactive: > 100 µM,inactive: > 100 µM,inactive: 69 µM,inactive: > 100 µM,,inactive: > 100 µM,inactive: 71.8 µM,inactive: > 100 µM,inactive: > 100 µM,inactive: > 100 µM,inactive: > 100 µM,inactive: > 100 µM,inactive: > 100 µM,inactive: > 100 µM,inactive: > 100 µM,inactive: > 100 µM,inactive: > 100 µM,
ClCCSc1c2ccccc2nc2ccccc12,inactive: 3.37 µM,inactive: 5.6 µM,inactive: 11.8 µM,inactive: 12.6 µM,inactive: 3.21 µM,inactive: 3.29 µM,inactive: 18.2 µM,inactive: 17.6 µM,inactive: 25.5 µM,inactive: 2.04 µM,inactive: 25.1 µM,inactive: 5 µM,inactive: 17.5 µM,inactive: 22.8 µM,inactive: 6.82 µM,inactive: 13 µM,inactive: 2.93 µM,inactive: 11.6 µM,inactive: 30.6 µM,
O=[N+]([O-])c1ncn(F)c1[N+](=O)[O-],inactive: > 100 µM,inactive: > 100 µM,inactive: > 100 µM,,inactive: > 100 µM,,inactive: 93.3 µM,inactive: > 100 µM,inactive: > 100 µM,,inactive: > 100 µM,inactive: > 100 µM,inactive: 49.9 µM,inactive: > 100 µM,inactive: > 100 µM,inactive: > 100 µM,,,inactive: > 100 µM,
CCCCCCCCCCCCCNCC(C)O (centres undefined),inactive: 11.6 µM,inactive: 12.1 µM,inactive: 11.1 µM,,inactive: 12.8 µM,inactive: 11.6 µM,inactive: 14.1 µM,inactive: 15.6 µM,inactive: 7.33 µM,inactive: 11.9 µM,inactive: 14.1 µM,inactive: 13.2 µM,inactive: 13.9 µM,inactive: 16.6 µM,inactive: 4.19 µM,,inactive: 2.84 µM,inactive: 13.7 µM,inactive: 12.4 µM,
